The text below walks through data of paper PMC10899660, “Global fungal-host interactome mapping identifies host targets of candidalysin” (Nature Communications, 2024).

The subject of this data set is FaDu cells. The data set can be described thus: Immunofluorescence of γ-H2AX formation and CCNH expression, FaDu cells. It is filed as cell-based. The note with it: 10 μM. As for the experimental part: Cells were cultured on glass coverslips (#WHB-24-CS) in a 24-well plate. After candidalysin treatment, cells were fixed with 4% paraformaldehyde for 10 min and washed with prewarmed PBS for 3 times. Then cells were treated with 0.2% Triton X-100 for 5 min and blocked with PBS containing 10% FBS and 1% BSA for 1 h at 37 °C before incubation with primary antibody at 4 °C overnight. Then the coverslips with treated cells were immersed in HBSS containing 2 μM FM1-43 on ice for 1 min to stain the plasma membrane. After staining with antifade mounting medium with DAPI (Beyotime, #P0131), the cells were imaged under the confocal microscope. The antibodies used in this study are as follows: CCNH antibody (CST, Rabbit Source, Cat#2927, 1:500 dilution), Anti-gamma H2A.X (phospho S139) antibody (Abcam, Mouse Source, Cat#ab303656, 1:500 dilution), Goat Anti-Mouse IgG H&L (Alexa Fluor® 647) (Abcam, Goat Source, Cat#ab150115,1:500 dilution), Goat Anti-Rabbit IgG H&L (Alexa Fluor® 488) (Abcam, Goat Source, Cat#ab150077, 1:500 dilution).

For `CC[C@H](C)[C@H](NC(=O)CNC(=O)[C@H](CCSC)NC(=O)[C@@H](NC(=O)[C@@H](NC(=O)CNC(=O)[C@@H](NC(=O)[C@@H](NC(=O)[C@@H](N)CO)[C@@H](C)CC)[C@@H](C)CC)[C@@H](C)CC)[C@@H](C)CC)C(=O)N[C@@H](CC(C)C)C(=O)NCC(=O)N[C@@H](CC(N)=O)C(=O)N[C@H](C(=O)N1CCC[C@H]1C(=O)N[C@@H](CCC(N)=O)C(=O)N[C@H](C(=O)N[C@H](C(=O)N[C@@H](CCC(N)=O)C(=O)N[C@H](C(=O)N[C@H](C(=O)N[C@@H](CCSC)C(=O)N[C@@H](CO)C(=O)N[C@H](C(=O)N[C@H](C(=O)N[C@@H](CCCCN)C(=O)N[C@@H](C)C(=O)N[C@@H](Cc1ccccc1)C(=O)N[C@@H](CCCCN)C(=O)NCC(=O)N[C@@H](CC(N)=O)C(=O)N[C@@H](CCCCN)C(=O)O)C(C)C)[C@@H](C)CC)[C@@H](C)CC)[C@@H](C)CC)[C@@H](C)CC)C(C)C)[C@@H](C)CC` [Ece1-III], the γ-H2AX accumulation result was “triggered the accumulation of γ-H2AX”.
